Consider 1 molecule from ChEMBL document CHEMBL1129627, “Nonlinear quantitative structure-activity relationship for the inhibition of dihydrofolate reductase by pyrimidines” (J Med Chem, 1996).

The target of this experiment is T1, Dihydrofolate reductase (Escherichia coli, UniProt P0ABQ4).
T1 sequence (P0ABQ4 whole entry): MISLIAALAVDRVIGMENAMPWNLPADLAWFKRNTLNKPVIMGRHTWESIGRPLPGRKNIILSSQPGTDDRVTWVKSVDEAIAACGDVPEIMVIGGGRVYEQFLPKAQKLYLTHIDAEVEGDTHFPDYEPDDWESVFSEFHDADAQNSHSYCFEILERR

In general, Ki refers to a dissociation constant, usually derived from enzyme kinetics or from competition with a known ligand. A high value points to weaker binding.

`COc1cc(CC2CN=C(N)N=C2N)cc(OC)c1N(C)C` (stereo unspecified) showed an inhibition constant (Ki) of 19.5 nM.
